Measurements taken from article PMC8367020 (Journal of the American Chemical Society, 2021).

Sequences of proteins named here, by UniProt entry; tags and fusion partners are left off. Residues count along the entry.
UniProt P80147, 29-500: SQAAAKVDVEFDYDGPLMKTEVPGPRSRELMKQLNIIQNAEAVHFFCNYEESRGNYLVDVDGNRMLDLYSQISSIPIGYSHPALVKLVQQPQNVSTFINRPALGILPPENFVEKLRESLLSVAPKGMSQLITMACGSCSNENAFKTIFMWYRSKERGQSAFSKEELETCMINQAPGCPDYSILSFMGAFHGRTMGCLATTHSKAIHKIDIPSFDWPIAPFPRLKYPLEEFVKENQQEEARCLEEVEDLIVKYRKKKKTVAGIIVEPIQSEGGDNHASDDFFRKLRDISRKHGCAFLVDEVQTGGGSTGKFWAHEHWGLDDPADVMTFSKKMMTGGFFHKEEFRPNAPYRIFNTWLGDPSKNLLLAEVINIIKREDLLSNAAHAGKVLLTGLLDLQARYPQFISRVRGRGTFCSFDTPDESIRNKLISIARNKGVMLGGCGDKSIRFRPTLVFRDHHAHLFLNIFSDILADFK

Target: GABA-AT (Sus scrofa, UniProt P80147)
Assay: Reversible inhibition of GABA-AT
Type: biochemical
Details: Ki = IC50/(1+[S]/Km)

- Ki: 100 µM
SMILES: N[C@H]1C[C@@H](C(=O)O)CC1(F)F [Compound 4, (1R,4S)-4-amino-3,3-difluorocyclopentanecarboxylic acid]
